Tested on: human adipocytes
Assay: Estradiol production in cultured human adipocytes (estradiol in conditioned media)
Assay type: cell-based
Details: mix of IL-1b, TNF-α, IL-6, IL-8, IL-11, oncostatin M 0.01 ug/ml each; 72 hr; IFN-γ 0.1 ug/ml, IFN-α 1 ug/ml, IFN-b 2 ug/ml; FIG. 4
Procedure: Human subcutaneous cultured adipocytes, catalog nos. SP-1012, SP-1024, SP-1096, SP-75, or SP-25 were purchased from Zen-Bio, Inc. (Research Triangle Park, N.C.) and cultured according to the manufacturer's instructions.
Human adipocytes (approximately 100,000 cells/well) were cultured for 24 hr in the presence or absence of different doses of IL-1α and IL-1β (as indicated) with and without IFN-γ (0.1 ug/ml, IL-1α, IL-1β and IFN-γ were purchased from R&D). The amount of estradiol release in the conditioned media was determined by radioimmunoassay for estradiol using the Active™ Estradiol EIA kit according to the manufacturer's instructions (catalog no. DSL-10-4300, Diagnostic Systems Laboratories, Inc., Webster, Tex.). […]
Human adipocytes (100,000 cells/well) were cultured for 72 hr with and without increasing doses of IFN-γ (0.0001 to 1 ug/ml, purchased from R&D). The amount of estradiol in the conditioned media was determined by radioimmunoassay as described in Example 1. […]
Human adipocytes (100,000 cells/well) were cultured for 72 hr in the presence or absence of different doses of the mix Cytokines (IL-1b, TNF-α, IL-6, IL-8, IL-11 and oncostatin M, 0.01 ug/ml/each—dilution as indicated) with and without IFN-γ (0.1 ug/ml), […] (1 ug/ml) or IFN-b (2 ug/ml). […] The amount of estradiol release in the conditioned media was determined by radioimmunoassay as described in Example 1. […]

B1: IFN-β: interferon beta, obtained from Serono (protein, UniProt P01574 22-187, looked up)
Interferon beta: MSYNLLGFLQRSSNFQCQKLLWQLNGRLEYCLKDRMNFDIPEEIKQLQQFQKEDAALTIYEMLQNIFAIFRQDSSSTGWNETIVENLLANVYHQINHLKTVLEEKLEKEDFTRGKLMSSLHLKRYYGRILHYLKAKEYSHCAWTIVRVEILRNFYFINRLTGYLRN
estradiol production stimulated by a mixture of 6 cytokines: do not inhibit
